In publication PMC11840601, “Single Amino Acid Changes Impact the Ability of Drosophila melanogaster Cecropins to Inhibit Growth of Providencia Pathogens” (ACS Omega, 2025):

Legend:
P. sneebia = type: cell-based, Providencia sneebia; conditions: broth microdilution, 96-well, Mueller Hinton broth, 25 °C, 16 h, OD600, peptide 64-1 or 128-2 μM
Method: (§1) Each cecropin was tested for its ability to inhibit the growth of Providencia bacterial species, strains that were previously isolated from D. melanogaster.[31] […] Therefore, we hypothesized the virulence of Providencia species may be partially due to differing susceptibility to cecropins. Experiments were conducted at 25 °C (Table 2), which is the temperature at which D. melanogaster are typically housed and likely reflects the temperature of bacterial growth in vivo as fruit flies are poikilotherms. […] Bacteria were determined to be in the log phase of growth when assays were started (Figure S3). P. burhodogranarieaB and P. burhodogranarieaD were the most susceptible to growth inhibition by all three native cecropin peptides (Table 2), which is unsurprising, given their low virulence and ability of D. melanogaster to sometimes clear infection by these bacteria.[32]P. sneebia, P. alcalifaciens, and P. rettgeri were more resistant to all three cecropins, with no growth inhibition observed against P. alcalifaciens in any condition.
(§2) For all antimicrobial testing, bacteria were cultured in order to obtain cells in their exponential growth phase. Liquid bacterial cultures were inoculated from a single bacterial colony on a streaked LB agar plate. Cultures were grown overnight in Mueller Hinton (MH) broth in an orbital shaker at 150 rpm for 16 h at 25 °C. The optical density (Absorbance600 nm) of overnight cultures were determined using a spectrophotometer (SmartSpec Plus, Bio-Rad, USA or Wireless Spectrometer (Vis), PASCO, USA). The overnight culture was then diluted to an optical density of 0.002 in M–H broth and incubated at 25 °C with shaking (150 rpm). Bacterial growth curves were determined experimentally for each bacterial species and at each temperature (Figure S4). Subcultures were grown for 5 h to ensure that each subculture was in its logarithmic growth phase and at a culture density above 0.1 Abs600 nm. After growth of the subculture for the designated time, the optical density was again measured and the bacterial culture was diluted to 0.002 Abs600 nm (∼2 × 10^6 CFU/mL) in M–H broth for use in subsequent assays.
(§3) The MIC for each peptide was determined using microdilution antimicrobial testing in 96-well plates. Peptide stocks were prepared at 1.28 mM in water and diluted to the desired concentration using M–H broth. A serial dilution was performed, with final peptide concentrations ranging from 64–1 μM or 128–2 μM on each plate. The plate was incubated on an orbital shaker (150 rpm) at 25 °C for 16 h. Growth inhibition was determined by measuring the optical density at 600 nm using a BioTek Synergy H1Microplate Reader. The MIC was determined to be the lowest concentration of peptide where there was no detectable difference in optical density when compared to wells lacking bacteria.

P. rettgeri = type: cell-based, Providencia rettgeri; conditions: broth microdilution, 96-well, Mueller Hinton broth, 25 °C, 16 h, OD600, peptide 64-1 or 128-2 μM
Method: as §1, §2, §3

P. burhodogranarieaB [1] = type: cell-based, Providencia burhodogranarieaB; conditions: broth microdilution, 96-well, Mueller Hinton broth, 25 °C, 16 h, OD600, peptide 64-1 or 128-2 μM
Method: as §1, §2, §3

P. burhodogranarieaD [2] = type: cell-based, Providencia burhodogranarieaD; conditions: broth microdilution, 96-well, Mueller Hinton broth, 25 °C, 16 h, OD600, peptide 64-1 or 128-2 μM
Method: as §1, §2, §3

P. burhodogranarieaD [3] = experiment: Propidium iodide permeability assay by flow cytometry; type: cell-based, Providencia burhodogranarieaD; conditions: after 20 min, 128 μM peptide (below the MIC)
Method: (§4) First, to assess permeability of the bacterial cells post-treatment, we used propidium iodide (PI), a dye that fluoresces when bound to DNA but is impermeable to intact cell membranes. Cells were analyzed by flow cytometry after various concentrations of an AMP were added to a bacterial culture; increasing cell fluorescence was indicative of a loss of membrane integrity, allowing PI to access the DNA within the bacterial cell (Figure 3). […] To directly assess the ability of bacterial cells to replicate and divide post-treatment, bacterial cultures were plated at various times after the addition of AMP. […] These experiments were performed using peptide concentrations at the previously determined MIC for each peptide-bacteria pair (Table 2).
(§5) Samples were prepared containing 5 μg/mL propidium iodide (PI) in MH broth. The cells were assessed by flow cytometry using a Millipore Guava easyCyte 8 at 0, 1, 3, 5, 7, 9, 11, 13, 15, and 20 min post-treatment and were incubated at 25 °C between measurements. […] Data processing was performed using OMIQ. Briefly, gates were set based on the initial scattering profiles of cells. A threshold was determined for red fluorescence; cells above that threshold were determined to be permeable. Gates and thresholds were applied consistently to each sample.
(§6) The number of total cells dropped over time for many samples due to peptide treatment, and the number of total cells at each time-point were scaled to the number of cells at 0 min. The number of destroyed or “missing” cells was determined by calculating the number of permeable and impermeable cells present at a given time, and subtracting those values from the total number of cells at 0 min.

P. burhodogranarieaB [4] = experiment: as above; type: cell-based, Providencia burhodogranarieaB; conditions: after 20 min, 128 μM peptide (below the MIC)
Method: as §4, §5, §6

P. alcalifaciens = type: cell-based, Providencia alcalifaciens; conditions: broth microdilution, 96-well, Mueller Hinton broth, 25 °C, 16 h, OD600, peptide 64-1 μM
Method: as §1
For all antimicrobial testing, bacteria were cultured in order to obtain cells in their exponential growth phase. […] The optical density (Absorbance600 nm) of overnight cultures were determined using a spectrophotometer (SmartSpec Plus, Bio-Rad, USA or Wireless Spectrometer (Vis), PASCO, USA). […] Bacterial growth curves were determined experimentally for each bacterial species and at each temperature (Figure S4). […] After growth of the subculture for the designated time, the optical density was again measured and the bacterial culture was diluted to 0.002 Abs600 nm (∼2 × 10^6 CFU/mL) in M–H broth for use in subsequent assays.
The MIC for each peptide was determined using microdilution antimicrobial testing in 96-well plates. […] Growth inhibition was determined by measuring the optical density at 600 nm using a BioTek Synergy H1Microplate Reader. The MIC was determined to be the lowest concentration of peptide where there was no detectable difference in optical density when compared to wells lacking bacteria.

Row | SMILES | Minimum Inhibitory Concentration (P. sneebia) [µM] | Minimum Inhibitory Concentration (P. rettgeri) [µM] | Minimum Inhibitory Concentration (P. burhodogranarieaB [1]) [µM] | Minimum Inhibitory Concentration (P. burhodogranarieaD [2]) [µM] | cells permeable to propidium iodide (P. burhodogranarieaD [3]) | cells permeable to propidium iodide (P. burhodogranarieaB [4]) | Minimum Inhibitory Concentration (P. alcalifaciens) [µM]
1 | CC[C@H](C)[C@H](NC(=O)CNC(=O)[C@H](CC(C)C)NC(=O)[C@@H](NC(=O)[C@H](CCC(N)=O)NC(=O)[C@@H](NC(=O)[C@@H](NC(=O)[C@H](C)NC(=O)[C@H](CC(=O)O)NC(=O)[C@H](CCCNC(=N)N)NC(=O)[C@@H](NC(=O)[C@H](Cc1c[nH]cn1)NC(=O)[C@H](CCC(N)=O)NC(=O)CNC(=O)[C@@H](NC(=O)[C@H](CCCNC(=N)N)NC(=O)[C@H](CCC(=O)O)NC(=O)[C@@H](NC(=O)[C@H](CCCCN)NC(=O)[C@H](CCCCN)NC(=O)CNC(=O)[C@@H](NC(=O)[C@H](CCCCN)NC(=O)[C@H](CCCCN)NC(=O)[C@H](CC(C)C)NC(=O)[C@H](Cc1c[nH]c2ccccc12)NC(=O)CN)[C@@H](C)CC)[C@@H](C)CC)C(C)C)[C@@H](C)O)[C@@H](C)O)[C@@H](C)CC)C(C)C)C(=O)N[C@@H](C)C(=O)N[C@@H](CCC(N)=O)C(=O)N[C@@H](CCC(N)=O)C(=O)N[C@@H](C)C(=O)N[C@@H](C)C(=O)N[C@@H](CC(N)=O)C(=O)N[C@H](C(=O)N[C@@H](C)C(=O)N[C@@H](C)C(=O)N[C@H](C(=O)N[C@@H](C)C(=O)N[C@@H](CCCNC(=N)N)C(=O)NCC(N)=O)[C@@H](C)O)C(C)C [CecAV] | 32 | 64 | 4 | 2 |  |  | 
2 | CC[C@H](C)[C@H](NC(=O)CNC(=O)[C@H](CC(C)C)NC(=O)[C@H](CC(=O)O)NC(=O)[C@H](CCC(N)=O)NC(=O)[C@@H](NC(=O)[C@H](CO)NC(=O)[C@H](C)NC(=O)[C@H](CC(=O)O)NC(=O)[C@H](CCCNC(=N)N)NC(=O)[C@@H](NC(=O)[C@H](Cc1c[nH]cn1)NC(=O)[C@H](CCC(N)=O)NC(=O)CNC(=O)[C@@H](NC(=O)[C@H](CCCNC(=N)N)NC(=O)[C@H](CCC(=O)O)NC(=O)[C@@H](NC(=O)[C@H](CCCCN)NC(=O)[C@H](CCCCN)NC(=O)CNC(=O)[C@H](CC(C)C)NC(=O)[C@H](CCCCN)NC(=O)[C@H](CCCNC(=N)N)NC(=O)[C@H](CC(C)C)NC(=O)[C@H](Cc1c[nH]c2ccccc12)NC(=O)CN)[C@@H](C)CC)[C@@H](C)CC)[C@@H](C)O)[C@@H](C)CC)C(=O)N[C@@H](C)C(=O)N[C@@H](CCC(N)=O)C(=O)N[C@@H](CCC(N)=O)C(=O)N[C@@H](C)C(=O)N[C@@H](C)C(=O)N[C@@H](CC(N)=O)C(=O)N[C@H](C(=O)N[C@@H](C)C(=O)N[C@@H](C)C(=O)N[C@H](C(=O)N[C@@H](C)C(=O)N[C@@H](CCCNC(=N)N)C(=O)NCC(N)=O)[C@@H](C)O)C(C)C [CecBD] | >128 | >128 | >128 | >128 | less than 30% | less than 30% | 
3 | CC[C@H](C)[C@H](NC(=O)CNC(=O)[C@H](CC(C)C)NC(=O)CNC(=O)[C@H](CCC(N)=O)NC(=O)[C@@H](NC(=O)[C@H](CO)NC(=O)[C@H](C)NC(=O)[C@H](CC(=O)O)NC(=O)[C@H](CCCNC(=N)N)NC(=O)[C@@H](NC(=O)[C@H](Cc1c[nH]cn1)NC(=O)[C@H](CCC(N)=O)NC(=O)CNC(=O)[C@@H](NC(=O)[C@H](CCCNC(=N)N)NC(=O)[C@H](CCC(=O)O)NC(=O)[C@@H](NC(=O)[C@H](CCCCN)NC(=O)[C@H](CCCCN)NC(=O)CNC(=O)[C@H](CC(C)C)NC(=O)[C@H](CCCCN)NC(=O)[C@H](CCCNC(=N)N)NC(=O)[C@H](CC(C)C)NC(=O)[C@H](Cc1c[nH]c2ccccc12)NC(=O)CN)[C@@H](C)CC)[C@@H](C)CC)[C@@H](C)O)[C@@H](C)CC)C(=O)N[C@@H](C)C(=O)N[C@@H](CCC(N)=O)C(=O)N[C@@H](CCC(N)=O)C(=O)N[C@@H](C)C(=O)N[C@@H](C)C(=O)N[C@@H](CC(N)=O)C(=O)N[C@H](C(=O)N[C@@H](C)C(=O)N[C@@H](C)C(=O)N[C@H](C(=O)N[C@@H](C)C(=O)N[C@@H](CCCNC(=N)N)C(=O)NCC(N)=O)[C@@H](C)O)C(C)C [CecBG] | 128 |  | 8 | 32 |  |  | 
4 | CC[C@H](C)[C@H](NC(=O)CNC(=O)[C@H](CC(C)C)NC(=O)CNC(=O)[C@H](CCC(N)=O)NC(=O)[C@@H](NC(=O)[C@@H](NC(=O)[C@H](C)NC(=O)[C@H](CC(=O)O)NC(=O)[C@H](CCCNC(=N)N)NC(=O)[C@@H](NC(=O)[C@H](Cc1c[nH]cn1)NC(=O)[C@H](CCC(N)=O)NC(=O)CNC(=O)[C@@H](NC(=O)[C@H](CCCNC(=N)N)NC(=O)[C@H](CCC(=O)O)NC(=O)[C@@H](NC(=O)[C@H](CCCCN)NC(=O)[C@H](CCCCN)NC(=O)CNC(=O)[C@H](CC(C)C)NC(=O)[C@H](CCCCN)NC(=O)[C@H](CCCCN)NC(=O)[C@H](CC(C)C)NC(=O)[C@H](Cc1c[nH]c2ccccc12)NC(=O)CN)[C@@H](C)CC)[C@@H](C)CC)[C@@H](C)O)[C@@H](C)O)[C@@H](C)CC)C(=O)N[C@@H](C)C(=O)N[C@@H](CCC(N)=O)C(=O)N[C@@H](CCC(N)=O)C(=O)N[C@@H](C)C(=O)N[C@@H](C)C(=O)N[C@@H](CC(N)=O)C(=O)N[C@H](C(=O)N[C@@H](C)C(=O)N[C@@H](C)C(=O)N[C@H](C(=O)N[C@@H](C)C(=O)N[C@@H](CCCNC(=N)N)C(=O)NCC(N)=O)[C@@H](C)O)C(C)C [CecC] | 64 | >64 | 4 | 4 |  |  | >64
